Each structure is given as a SMILES string.

One assay relates to M2 receptors (heart). Conditions: relative affinity; source Freedman et al 1988; cited from earlier work.
Assay [1] deals with lithium-pilocarpine seizures. The assay is described as follows: Lithium-pilocarpine assay using post-treatment (protection against lithium-pilocarpine seizures and brain damage). Conditions: for ED50, protection against lithium-pilocarpine seizures: dose preventing seizure activity and neurotoxic damage in 50% of rats, given after onset of convulsions, lithium chloride 3 meq/kg sc, pilocarpine 30 mg/kg ip 24 h later, 4 h observation.

For a further assay, the system named is M1 receptors (brain). Conditions: source Freedman et al 1988, cited from earlier work; for M1/M2 RATIO: ratio of 1/Kapp M1 (brain) to M2 (heart); for 1/Kapp M1 (brain): relative affinity.
Assay [2] concerns cingulate/retrosplenial neurons. The experiment in a line: Prevention of adverse side effects caused by NMDA antagonists in cingulate/retrosplenial neurons. Conditions: including vacuole formation and mitochondrial dissolution in cingulate/retrosplenial neurons.
Another assay has as its system pilocarpine seizures. Conditions: administered prior to the pilocarpine; Honchar et al 1983; cited from earlier work.

As for `CN1[C@@H]2CC[C@H]1C[C@@H](OC(c1ccccc1)c1ccccc1)C2`, the “1/Kapp M2 (heart)” value with M2 receptors (heart) is 0.07. Also, in assay [1], the “ED50, protection against lithium-pilocarpine seizures” value (from here on “ED50, protection”) is on record as 4.5 mg/kg. Moreover, in the assay on M1 receptors (brain), the M1/M2 RATIO is 18 and the “1/Kapp M1 (brain)” value was 1.14. Besides, in assay [2], the “prevention of adverse side effects caused by NMDA antagonists” value (“prevention” for short) is “effective”.

In the case of `OC(CCN1CCCC1)(c1ccccc1)C1CCCCC1` (stereo not drawn), the “ED50, protection” value in assay [1] is reported as 8.3 mg/kg. Moreover, in assay [1] (entire 4 hour observation period, EEG studied with lithium-pilocarpine (or soman, Example 2)), the EEG-recordable seizure activity entry is reported as “completely blocked EEG-recordable seizure activity”.

Consider `OC(CCN1CCCCC1)(c1ccccc1)C1CC2C=CC1C2` (stereo not drawn), for which the “1/Kapp M2 (heart)” value in the assay on M2 receptors (heart) is on record as 0.04. Also, the “ED50, protection” value in assay [1] amounted to 4.5 mg/kg. For the same molecule, in the assay on M1 receptors (brain), the M1/M2 RATIO was 18 and the “1/Kapp M1 (brain)” value was 0.83.

`CN1C2CC(OC(=O)C(CO)c3ccccc3)CC1C1OC12` (stereo not drawn): in the assay on M2 receptors (heart), the “1/Kapp M2 (heart)” value is listed as 0.20. Besides, the “prevention” value in assay [2] is given as “effective”.

Turning to `CCN(CC)CCOC(=O)C(O)(c1ccccc1)c1ccccc1`, the “ED50, protection” value in assay [1] came to 4.2 mg/kg. In assay [2], the “prevention” value is listed as “effective”.

`CN1C2CCC1CC(OC(=O)C(CO)c1ccccc1)C2` (racemic): the “1/Kapp M2 (heart)” value in the assay with M2 receptors (heart) is 0.29. In addition, the “ED50, protection” value in assay [1] is given as 22.9 mg/kg. In the assay on M1 receptors (brain), the M1/M2 RATIO is 2.1 and the “1/Kapp M1 (brain)” value is given as 0.63. Besides, the “degree of protection against seizures induced by pilocarpine” value with pilocarpine seizures was “limited degree of protection”.

For `OC(CCN1CCCCC1)(c1ccccc1)C1CCCCC1` (stereo not drawn), the “1/Kapp M2 (heart)” value with M2 receptors (heart) is 0.03. In addition, the “ED50, protection” value in assay [1] was 2.5 mg/kg. In addition, in the assay on M1 receptors (brain), the M1/M2 RATIO is 13 and the “1/Kapp M1 (brain)” value is listed as 0.45.

The values above are taken from patent US5011853A, “Compounds for treatment of cholinergic neurotoxins” (dated 1991).
